Measurements taken from patent publication US20050202001A1 (priority 2002, published 2005).

Test system: Normal neonatal human epidermal melanocytes (NHEM 2489)
Experiment: Melanin production in normal human epidermal melanocytes
Conditions: 20 μM added every 24 hours, 72 hours, versus DMSO control; visual inspection of lysed cell solution (FIG. 1)

COc1cccc(-c2cc(=O)c3ccccc3o2)c1N [PD98059]
melanin production: significant melanin production
